Test system: white mice
Test: Example 4: inhibition of (−)-trans-(1S,2S)-U-50488 toxicity by its potentised enantiomer in white mice, blind randomised placebo-controlled, survival next morning
Details: i.p., estimated with the first 52 mice

With (−)-trans-(1S,2S)-U-50488 the LD50 was 25 mg/kg.

— patent US8071630B2 (priority 2002, dated 2011)
